Measured values as given in PubChem BioAssay (EPA / NIEHS).
“And” between values parts separate entries of the source, which are not always exact repeats. Equal entries are not always repeated. All entries are inconclusive by the source's own rule. Clear calls are listed elsewhere. Rule for the calls, unless noted: active = hit-call score of the fitted dose curve at least 0.9, where 1 is the maximum; inconclusive = response in the unintended direction; inactive = score below 0.9. Where a structure was tested more than once in an assay, its records may differ in their call.

Protein sequences, listed by entry. Tags and fused reporters are not part of them. Lines headed by an entry give the natural chain unless they say otherwise; changes in a name come on top.
UniProt Q9UNQ0: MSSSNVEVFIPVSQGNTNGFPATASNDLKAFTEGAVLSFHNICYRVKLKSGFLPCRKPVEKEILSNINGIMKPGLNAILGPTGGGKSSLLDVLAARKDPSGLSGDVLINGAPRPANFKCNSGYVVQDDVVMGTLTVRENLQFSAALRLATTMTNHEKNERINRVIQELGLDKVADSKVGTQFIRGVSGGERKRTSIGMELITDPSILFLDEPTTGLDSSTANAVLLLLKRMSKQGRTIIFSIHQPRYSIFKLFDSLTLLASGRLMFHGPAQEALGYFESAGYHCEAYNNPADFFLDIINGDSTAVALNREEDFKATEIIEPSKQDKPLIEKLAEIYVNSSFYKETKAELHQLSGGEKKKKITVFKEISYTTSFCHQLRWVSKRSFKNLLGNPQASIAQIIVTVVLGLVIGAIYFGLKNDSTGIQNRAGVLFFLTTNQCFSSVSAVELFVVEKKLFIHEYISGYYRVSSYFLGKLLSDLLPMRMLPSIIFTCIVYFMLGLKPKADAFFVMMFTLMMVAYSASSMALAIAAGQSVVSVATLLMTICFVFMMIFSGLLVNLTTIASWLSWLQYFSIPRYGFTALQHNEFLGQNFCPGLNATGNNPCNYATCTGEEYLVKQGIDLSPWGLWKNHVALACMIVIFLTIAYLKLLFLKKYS
UniProt P33261, whole entry, looked up: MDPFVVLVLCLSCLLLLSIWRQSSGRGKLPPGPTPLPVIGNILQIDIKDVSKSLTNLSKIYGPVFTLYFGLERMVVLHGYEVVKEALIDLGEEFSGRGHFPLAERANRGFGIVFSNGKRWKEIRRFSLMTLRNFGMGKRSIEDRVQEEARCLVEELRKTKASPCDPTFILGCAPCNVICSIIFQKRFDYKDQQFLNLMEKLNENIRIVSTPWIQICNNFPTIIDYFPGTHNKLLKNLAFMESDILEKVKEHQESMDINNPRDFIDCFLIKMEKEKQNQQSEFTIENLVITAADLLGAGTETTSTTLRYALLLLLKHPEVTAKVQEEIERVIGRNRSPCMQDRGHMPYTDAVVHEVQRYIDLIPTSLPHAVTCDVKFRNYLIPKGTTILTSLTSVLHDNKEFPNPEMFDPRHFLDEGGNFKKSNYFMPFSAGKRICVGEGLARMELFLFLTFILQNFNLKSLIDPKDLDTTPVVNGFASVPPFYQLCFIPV
UniProt P08684, whole entry, looked up: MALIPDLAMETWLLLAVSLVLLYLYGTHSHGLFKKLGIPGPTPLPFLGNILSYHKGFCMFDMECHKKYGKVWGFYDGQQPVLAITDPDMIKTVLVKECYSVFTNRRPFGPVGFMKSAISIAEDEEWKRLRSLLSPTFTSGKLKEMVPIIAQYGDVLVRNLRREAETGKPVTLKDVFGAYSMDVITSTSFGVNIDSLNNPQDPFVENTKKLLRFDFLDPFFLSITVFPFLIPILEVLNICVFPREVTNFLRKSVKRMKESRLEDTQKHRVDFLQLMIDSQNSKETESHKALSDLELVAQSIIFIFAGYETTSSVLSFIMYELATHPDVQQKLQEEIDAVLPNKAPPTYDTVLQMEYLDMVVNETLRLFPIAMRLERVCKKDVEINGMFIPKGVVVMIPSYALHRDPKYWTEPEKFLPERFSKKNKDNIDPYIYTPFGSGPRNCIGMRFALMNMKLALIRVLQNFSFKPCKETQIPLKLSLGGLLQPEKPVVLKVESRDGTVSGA
UniProt P04406: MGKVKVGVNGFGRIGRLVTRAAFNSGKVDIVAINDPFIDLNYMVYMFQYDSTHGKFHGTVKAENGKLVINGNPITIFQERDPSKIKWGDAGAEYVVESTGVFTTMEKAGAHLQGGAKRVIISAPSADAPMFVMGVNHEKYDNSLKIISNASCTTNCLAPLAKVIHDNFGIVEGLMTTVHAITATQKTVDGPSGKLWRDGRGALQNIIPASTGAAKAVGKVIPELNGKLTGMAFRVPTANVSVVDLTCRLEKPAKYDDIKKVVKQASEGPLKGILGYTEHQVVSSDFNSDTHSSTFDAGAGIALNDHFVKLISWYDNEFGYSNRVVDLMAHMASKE

Tests used:
[1] = Tanguay_ZF_120hpf_PFIN_legacy: (Legacy) Oregon State University Tanguay Lab 120 Hour Post-fertilization zebrafish Assay for Pectoral Fin Malformation (AID 2283648);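 note: each larva judged yes or no for fin defect by brightfield with dead larvae skipped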
Procedure, shortened: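 Binary pectoral fin malformation call at 120 hpf by brightfield microscopy; 5D wild-type zebrafish, chorion removed at 4 hpf, one embryo per well from 6 hpf, static exposure at 28C; DMSO (0.64% final) as baseline.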

[2] = Tanguay_ZF_120hpf_PIG_legacy: (Legacy) Oregon State University Tanguay Lab 120 Hour Post-fertilization zebrafish Assay for Pigmentation Malformation (AID 2283650);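 note: dechorionated Tropical 5D zebrafish embryos exposed singly from 6 to 120 hpf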
Procedure, shortened: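 Brightfield scoring of pigmentation malformation at 120 hpf, recorded as binary present/absent per larva. Exposure: dechorionated 5D wild-type embryos, one per well, static from 6 hpf at 28C, final DMSO 0.64% (vol/vol). Dead embryos not scored.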

[3] = read-out: Broad substrate specificity ATP-binding cassette transporter ABCG2 (Homo sapiens) (UniProt Q9UNQ0); assay: CLD_ABCG2_6hr: CellzDirect (CLD) Gene Expression Assay for ABC Transporter (ABCG2) at 6 hours (AID 2283660)
Procedure, shortened: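 ABCG2 mRNA induction measured by qNPA chemiluminescence in human primary hepatocyte cultures, 6 h post-dose. Chemicals tested at several concentrations against a 0.2% DMSO vehicle; positive-direction fit relative to DMSO.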

[4] = read-out: xenobiotic metabolism (CYP2C9), CYP2C9 (gene 1559); assay: CLD_CYP2C9_6hr: CellzDirect (CLD) Gene Expression Assay for xenobiotic metabolism (CYP2C9) at 6 hours (AID 2283664)
Procedure, shortened: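 Readout is qNPA chemiluminescence of CYP2C9 mRNA, taken 6 h after dosing of cultured human liver primary cells at several concentrations. Activity is the increase over 0.2% DMSO baseline. Morphology-based cytotoxicity flagged yes/no.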

[5] = read-out: alkyl and aryl transferase (GSTA2), GSTA2 (gene 2939); assay: CLD_GSTA2_6hr: CellzDirect (CLD) Gene Expression Assay for alkyl and aryl transferase (GSTA2) at 6 hours (AID 2283666)
Procedure, shortened: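 GSTA2 transcript induction at 6 h, quantified by nuclease protection (qNPA) with chemiluminescent detection, in human liver primary hepatocytes exposed to several compound concentrations with 0.2% DMSO as baseline; phase-contrast morphology annotated apparent cytotoxicity.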

[6] = read-out: organic anion transporter (SLCO1B1), SLCO1B1 (gene 10599); assay: CLD_SLCO1B1_6hr: CellzDirect (CLD) Gene Expression Assay for organic anion transporter (SLCO1B1) at 6 hours (AID 2283668);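 note: active means mRNA induction above DMSO baseline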
Procedure, shortened: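 SLCO1B1 mRNA induction measured 6 h after dosing by quantitative nuclease protection with chemiluminescent read-out, in human primary hepatocyte cultures given chemicals at several concentrations (vehicle 0.2% DMSO). Increase over DMSO baseline fitted; morphology-based cytotoxicity annotated yes/no.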

[7] = read-out: sulfotransferase (SULT2A), SULT2A1 (gene 6822); assay: CLD_SULT2A_6hr: CellzDirect (CLD) Gene Expression Assay for sulfotransferase (SULT2A) at 6 hours (AID 2283669);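 note: hits raise transcript level above the DMSO vehicle baseline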
Procedure, shortened: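 Measured 6 h after dosing, SULT2A1 mRNA in human hepatocyte lysates was quantified by S1 nuclease protection with chemiluminescent detection. Increases fitted against 0.2% DMSO vehicle baseline; phase-contrast cytotoxicity recorded yes/no.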

[8] = CLD_ACTIN_24hr: CellzDirect (CLD) Gene Expression Assay for Baseline Control (Actin) at 24 hours (AID 2283670)
Procedure, shortened: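 This 24 h qNPA (S1 nuclease protection, chemiluminescence) actin transcript readout in cultured human liver primary cells serves as baseline control. Signal is fitted upward relative to 0.2% DMSO; chemicals tested at multiple concentrations across two donor preparations.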

[9] = read-out: ABC Transporter (ABCB11), ABCB11 (gene 8647); assay: CLD_ABCB11_24hr: CellzDirect (CLD) Gene Expression Assay for ABC Transporter (ABCB11) at 48 hours (AID 2283674; active = hit-call score of the fitted dose curve at least 0.9, where 1 is the maximum; inactive = score below 0.9)
Procedure, shortened: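 ABCB11 transcript was quantified by qNPA chemiluminescence in cultured human liver hepatocytes 24 hours after dosing. Fresh dosing solutions were applied on consecutive days, against a 0.2% DMSO vehicle. Cytotoxicity was noted by phase-contrast morphology.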

[10] = CLD_ACTIN_6hr: CellzDirect (CLD) Gene Expression Assay for Baseline Control (Actin) at 6 hours (AID 2283676)
Procedure, shortened: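 Baseline actin transcript level measured by qNPA (S1 nuclease protection, chemiluminescence) in human hepatocyte cultures 6 h after chemical exposure; 0.2% DMSO vehicle as reference, cytotoxicity noted from morphology.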

[11] = read-out: Cytochrome P450 2C19 (Homo sapiens) (UniProt P33261); assay: CLD_CYP2C19_6hr: CellzDirect (CLD) Gene Expression Assay for xenobiotic metabolism (CYP1A2) at 6 hours (AID 2283678)
Procedure, shortened: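 CYP2C19 transcript induction was quantified by quantitative nuclease protection assay with chemiluminescent read-out, 6 h after dosing. Cells were primary human hepatocytes from two donor preparations, given fresh dosing solutions daily in 0.2% DMSO vehicle. Activity was relative to DMSO.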

[12] = read-out: Cytochrome P450 3A4 (Homo sapiens) (UniProt P08684); assay: CLD_CYP3A4_6hr: CellzDirect (CLD) Gene Expression Assay for xenobiotic metabolism (CYP3A4) at 6 hours (AID 2283680)
Procedure, shortened: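 CYP3A4 mRNA induction, 6 h after dosing of cultured primary human hepatocytes from two donors, read by quantitative nuclease protection (qNPA, chemiluminescence). Vehicle 0.2% DMSO as baseline; morphology-based cytotoxicity annotated yes/no.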

[13] = read-out: Glyceraldehyde-3-phosphate dehydrogenase (Homo sapiens) (UniProt P04406); assay: CLD_GAPDH_6hr: CellzDirect (CLD) Gene Expression Assay for Baseline Control (Glyceraldehyde 3-phosphate dehydrogenase) at 6 hours (AID 2283681)
Procedure, shortened: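 GAPDH baseline-control readout from qNPA (S1 nuclease digestion, probe hybridization, chemiluminescence) in lysates of cultured human hepatocytes harvested 6 h post-dosing. Chemicals tested at multiple concentrations versus 0.2% DMSO vehicle; microscopy-based cytotoxicity flagged yes/no.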

[14] = read-out: HMG-CoA synthase (HMGCS2), HMGCS2 (gene 3158); assay: CLD_HMGCS2_6hr: CellzDirect (CLD) Gene Expression Assay for HMG-CoA synthase (HMGCS2) at 6 hours (AID 2283682);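 note: actives raise HMGCS2 transcript above the 0.2% DMSO vehicle baseline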
Procedure, shortened: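 HMGCS2 transcript induction read by quantitative nuclease protection with chemiluminescence, 6 h after dosing of primary human hepatocytes. Baseline was 0.2% DMSO vehicle; phase-contrast morphology gave a yes/no cytotoxicity annotation.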

[15] = read-out: Cytochrome P450 2C19 (Homo sapiens) (UniProt P33261); assay: CLD_CYP2C19_24hr: CellzDirect (CLD) Gene Expression Assay for xenobiotic metabolism (CYP1A2) at 24 hours (AID 2283687)
Procedure, shortened: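 CYP2C19 mRNA was quantified by qNPA chemiluminescence after 24 h of daily dosing of cultured human primary hepatocytes from two donors; vehicle was 0.2% DMSO, and increases over DMSO baseline were fitted.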

[16] = read-out: organic anion transporter (SLCO1B1), SLCO1B1 (gene 10599); assay: CLD_SLCO1B1_24hr: CellzDirect (CLD) Gene Expression Assay for organic anion transporter (SLCO1B1) at 24 hours (AID 2283690)
Procedure, shortened: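 SLCO1B1 mRNA induction read at 24 h by quantitative nuclease protection assay (chemiluminescence), analyzed against DMSO baseline. Human hepatocyte cultures from separate donors received fresh dosing solutions daily; vehicle 0.2% DMSO; cytotoxicity flagged by phase-contrast morphology.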

[17] = read-out: HMG-CoA synthase (HMGCS2), HMGCS2 (gene 3158); assay: CLD_HMGCS2_24hr: CellzDirect (CLD) Gene Expression Assay for HMG-CoA synthase (HMGCS2) at 24 hours (AID 2283691)
Procedure, shortened: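 qNPA with S1 nuclease digestion and chemiluminescent detection gave HMGCS2 transcript levels, fitted upward against 0.2% DMSO vehicle. Cultured human hepatocytes (two donors) received fresh compound daily and were harvested at 24 h; phase-contrast morphology flagged cytotoxicity.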

[18] = read-out: Glyceraldehyde-3-phosphate dehydrogenase (Homo sapiens) (UniProt P04406); assay: CLD_GAPDH_24hr: CellzDirect (CLD) Gene Expression Assay for Baseline Control (Glyceraldehyde 3-phosphate dehydrogenase) at 24 hours (AID 2283692)
Procedure, shortened: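 GAPDH baseline-control readout: qNPA chemiluminescent mRNA signal in human primary hepatocytes harvested 24 h after daily dosing, normalised to 0.2% DMSO with positive fitting direction; cytotoxicity annotated by phase-contrast morphology.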

[19] = read-out: ABC Transporter (ABCB11), ABCB11 (gene 8647); assay: CLD_ABCB11_48hr: CellzDirect (CLD) Gene Expression Assay for ABC Transporter (ABCB11) at 48 hours (AID 2283697)
Procedure, shortened: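 Induction of ABCB11 mRNA relative to 0.2% DMSO, measured at 48 h by qNPA chemiluminescence. Cultured human hepatocytes (two donors) received fresh dosing solutions at several concentrations on two consecutive days.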

[20] = read-out: Cytochrome P450 2C19 (Homo sapiens) (UniProt P33261); assay: CLD_CYP2C19_48hr: CellzDirect (CLD) Gene Expression Assay for xenobiotic metabolism (CYP1A2) at 48 hours (AID 2283700)
Procedure, shortened: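 CYP2C19 mRNA induction read by chemiluminescent quantitative nuclease protection assay after 48 h, with fresh compound added daily for two days to cultured human liver hepatocytes. Activity fitted upward against 0.2% DMSO vehicle.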

[21] = CLD_ACTIN_48hr: CellzDirect (CLD) Gene Expression Assay for Baseline Control (Actin) at 48 hours (AID 2283702)
Procedure, shortened: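 Background-control actin mRNA read by qNPA chemiluminescence at 48 h. Human hepatocyte cultures from two donors received fresh multi-concentration chemical doses daily for two days; 0.2% DMSO served as vehicle baseline.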

[22] = read-out: Glyceraldehyde-3-phosphate dehydrogenase (Homo sapiens) (UniProt P04406); assay: CLD_GAPDH_48hr: CellzDirect (CLD) Gene Expression Assay for Baseline Control (Glyceraldehyde 3-phosphate dehydrogenase) at 48 hours (AID 2283706)
Procedure, shortened: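 GAPDH baseline-control readout: qNPA chemiluminescent mRNA quantitation in human liver primary cells 48 h after daily dosing on two consecutive days, vehicle 0.2% DMSO; gain of signal fitted against DMSO, cytotoxicity flagged by phase-contrast morphology.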

[23] = read-out: organic anion transporter (SLCO1B1), SLCO1B1 (gene 10599); assay: CLD_SLCO1B1_48hr: CellzDirect (CLD) Gene Expression Assay for organic anion transporter (SLCO1B1) at 48 hours (AID 2283707)
Procedure, shortened: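 SLCO1B1 transcript quantified by qNPA with chemiluminescent readout after 48 h of once-daily chemical exposure. Cultured human primary hepatocytes came from two donors, with 0.2% DMSO vehicle; positive-direction fitting against DMSO, cytotoxicity flagged by morphology.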

[24] = read-out: HMG-CoA synthase (HMGCS2), HMGCS2 (gene 3158); assay: CLD_HMGCS2_48hr: CellzDirect (CLD) Gene Expression Assay for HMG-CoA synthase (HMGCS2) at 48 hours (AID 2283711)
Procedure, shortened: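 mRNA induction read by qNPA chemiluminescence, 48 h after dosing. Cultured primary human liver cells (two donor preparations) received fresh compound daily over two days against 0.2% DMSO vehicle; morphology-based cytotoxicity noted alongside.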

[25] = system: Thyroperoxidase (TPO), gene 445522; assay: CCTE_Simmons_GUA_TPO: CCTE's Guaiacol Assay for Thyroperoxidase (TPO) Inhibition, Simmons Lab (AID 2283750)
Procedure, shortened: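 Porcine thyroid microsomes (25 ug) in 200mM potassium phosphate, preincubated 30 s at 37C with compound (8 concentrations, 5 nM–87.5 uM) and 35mM guaiacol; 1mM H2O2 starts reaction. Absorbance change at 450nm over first 80 s; loss of signal versus DMSO, three replicates.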

[26] = CCTE_Shafer_MEA_acute_LDH: CCTE's Lactate Dehydrogenase Assay for Cytotoxicity in the Neural Acute Assay, Shafer Lab (AID 2284086);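 note: active means LDH release rises above DMSO vehicle level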
Procedure, shortened: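 LDH absorbance at 490 nm in medium taken right after 40-min compound exposure; rat primary cortical neuron networks on MEA plates, days post-plating 13 or 15. Increase over DMSO baseline scored as cytotoxicity.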

[27] = CCTE_Mundy_HCI_hNP1_Pro_ResponderAvgInten: CCTE's Proliferation Assay in human neuroprogenitor cells, Mundy Lab (AID 2284224);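 note: human neural progenitor cells hNP1 derived from WA09 embryonic stem cells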
Procedure, shortened: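 Proliferation read as average intensity of BrdU-positive cells, imaged at 26.25 h post-dosing: chemical exposure started after 40–44 h culture, BrdU during final 4 h, paraformaldehyde fixation. Positive-direction fit relative to DMSO.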

[28] = IUF_NPC2-5_cytotoxicity_72hr: Cytotoxicity Assessment at 72 hours in the Leibniz Research Institute for Environmental Medicine (IUF) Neural Progenitor Cell Migration and Differentiation Assay for Cytotoxicity (NPC2-5) (AID 2284306);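 note: LDH release into supernatant measured by resorufin fluorescence marking membrane damage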
Procedure, shortened: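 hNPC spheres (0.3 mm), PDL/laminin, DMEM/F12 3:1 + 1% N2; cpd from d0, 7 concs + SC, DMSO max 0.1%; half-medium refresh d3. Readout: supernatant LDH via resorufin fluorescence (RFU), 72 h; gain-of-signal fit.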

Measured: AC50

CC(C)OP(=S)(OC(C)C)SCCNS(=O)(=O)c1ccccc1
inconclusive: [1] 119 µM | [2] 0.000646 µM | [3] 20 µM | [4] 20 µM and 0.4 nM | [5] 3.97 µM | [6] 20 µM | [7] 0.00361 µM | [8] 20 µM and 4.19 µM | [9] 20 µM and 46.6 nM | [10] 20 µM | [11] 20 µM and 8.19 µM | [12] 20 µM | [13] 20 µM and 0.833 nM and 1.9 µM | [14] 0.00548 µM | [15] 3.97 µM | [16] 7.08 µM and 3.97 µM | [17] 12.4 µM and 20 µM | [18] 20 µM and 4.53 µM | [19] 1.58 µM and 20 µM | [20] 20 µM and 326 nM | [21] 2.36 µM and 259 nM and 20 µM | [22] 3.97 µM and 4.04 µM and 12.5 µM | [23] 20 µM and 8 µM and 5.04 µM | [24] 20 µM and 17.4 µM | [25] 23.7 µM | [26] 20 µM | [27] 1.19 nM and 87.7 µM | [28] 52.2 µM
